Laboratory results taken from patent US6235777A, “Benzenesulfonamide compounds” (Ono Pharmaceutical Co., Ltd., priority 1997, dated 2001).

Chains of the proteins cited; added tags and fusions are not shown.
UniProt P30557, whole entry: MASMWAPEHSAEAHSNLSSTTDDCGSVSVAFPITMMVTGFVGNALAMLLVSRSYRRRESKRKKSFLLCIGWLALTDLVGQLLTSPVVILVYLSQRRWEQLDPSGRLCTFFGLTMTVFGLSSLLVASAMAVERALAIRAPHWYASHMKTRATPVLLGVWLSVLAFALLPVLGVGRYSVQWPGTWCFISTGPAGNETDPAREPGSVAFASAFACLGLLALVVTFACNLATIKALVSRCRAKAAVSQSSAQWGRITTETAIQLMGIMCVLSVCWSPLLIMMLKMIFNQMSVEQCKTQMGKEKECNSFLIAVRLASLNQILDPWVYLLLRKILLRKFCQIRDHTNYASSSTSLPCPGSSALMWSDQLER
UniProt P35375, whole entry: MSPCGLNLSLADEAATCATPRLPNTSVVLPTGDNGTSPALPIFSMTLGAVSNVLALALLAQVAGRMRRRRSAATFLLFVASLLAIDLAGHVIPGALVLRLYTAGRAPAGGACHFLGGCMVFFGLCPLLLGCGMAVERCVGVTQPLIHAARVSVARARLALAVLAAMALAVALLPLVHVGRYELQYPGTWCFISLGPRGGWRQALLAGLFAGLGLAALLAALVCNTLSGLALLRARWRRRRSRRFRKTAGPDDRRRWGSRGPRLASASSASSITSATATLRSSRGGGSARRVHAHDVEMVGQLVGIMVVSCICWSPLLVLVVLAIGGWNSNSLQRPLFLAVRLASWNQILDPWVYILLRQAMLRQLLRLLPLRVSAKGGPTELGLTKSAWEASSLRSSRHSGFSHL

Experiments:
mouse EP3 = mouse EP3 (Mus musculus, UniProt P30557); experiment: Binding assay using expression cell of prostanoid receptor subtype (EP3; competition of specific 3H-PGE2 binding to CHO cell membrane fraction); conditions: read-out: dissociation constant to receptor subtype, Ki (EP3), compounds of Related Arts (1) and (2), Table 2, same experiment as Table 1
mouse EP1 = mouse EP1 (Mus musculus, UniProt P35375); experiment: Binding assay using expression cell of prostanoid receptor subtype (EP1; competition of specific 3H-PGE2 binding to CHO cell membrane fraction); conditions: read-out: dissociation constant to receptor subtype, Ki (EP1), compounds of Related Arts (1) and (2), Table 2, same experiment as Table 1

SMILES	Ki (mouse EP3) [nM]	Ki (mouse EP1) [nM]
Cc1ccc(S(=O)(=O)NCC2C3C=CC(C3)C2/C=C\CCCC(=O)O)cc1 (stereo not drawn)	480	3600
O=C(O)CCCC=CCC1CCCCC1NS(=O)(=O)C=Cc1ccccc1 (stereo not drawn)	13	2300
O=C(O)CCCC=CCC1C2CCC(C2)C1NS(=O)(=O)C=Cc1ccccc1 (stereo not drawn)	2.7	> 10000
Cc1ccc(S(=O)(=O)NC2C3CCC(CC3)C2CC=CCCCC(=O)O)cc1 (stereo not drawn)	170	1300

Other lines, results leading:

Ki (mouse EP3) [nM]	Ki (mouse EP1) [nM]	SMILES
140	190	O=C(O)CCC/C=C\C1C2C=CC(C2)C1CNS(=O)(=O)c1ccc(Br)cc1 (stereo not drawn)
95	69	O=C(O)CCCC=CC1CCCCC1CNS(=O)(=O)c1ccc(Br)cc1 (stereo not drawn)
